The text below walks through data of patent US20050158374A1, “Compositions and dosage forms for enhanced absorption of metformin” (priority 2003, published 2005).

Data set [1] is described as follows: in vivo colonic absorption using flushed ligated colonic model in rats. The note with it: ligated colon.

Regarding Metformin oleate, the “H2O Solubility (4 h)” value is recorded as 53. Besides, the “Bioavailability Relative to IV Dose (Fold-Increase)” value in data set [1] is recorded as 14 Fold-Increase.
